“And” between values parts separate entries of the source, which are not always exact repeats. Equal values may be shown once.
Columns and labels:
[1] = test system: plasma proteins; experiment: plasma protein binding by ultracentrifugation, rat plasma; assay type: in vitro ADME; conditions: Sprague Dawley, pooled plasma, pH 7.4, 15000 ng/mL, 37° C., 6 hours, read-out: mean percent protein binding (converted)
Text: (§1) Such non-covalent binding to albumin is anticipated to slow down the degradation of peptide in plasma and results in decreased renal clearance. […] Pooled plasma was obtained from at least three Sprague Dawley rats, beagle dogs, and cynomolgus monkeys. Pooled human plasma was obtained from three human males (that reportedly had not taken any medication in the previous 7 days before collection). K2EDTA was used as the anticoagulant. The pH of each pool of plasma was adjusted, if needed, to approximately pH 7.4 with hydrochloric acid or sodium hydroxide. Ultracentrifugation was performed using polycarbonate ultracentrifugation tube placed in a S80 AT2 rotor at 37° C. at 357000×g for 6 hours to achieve separation of PUC (supernatant) from plasma proteins. After centrifugation, the PUC was analyzed by LC MS for the calculation of protein binding. Protein Binding was evaluated as Percent unbound=(Cu/Co)×100 and Percent bound=100-percent unbound where Co is the concentration of test article in plasma prior to ultracentrifugation (ng/mL) and Cu is the concentration of test article in plasma in the ultracentrifugate (ng/mL).

[2] = as above; assay type: in vitro ADME; conditions: pH 7.4, 15000 ng/mL, 37° C., 6 hours
Text: as §1

[3] = test system: plasma proteins of rat; experiment: as above; assay type: in vitro ADME
Text: as §1

[4] = single-dose pharmacokinetics in male C57BL6/J mice (SC and IV); conditions: for AUC(0-inf) / AUC(0-t) / Cmax / Tmax / half-life / MRT: male, C57BL6/J, mouse, in vivo
Experimental: The in-life phase of the study was conducted at the Jackson Laboratory (Sacramento, Calif.) in sixty-seven C5713L6/J male mice (7-9 weeks of age) (diet-induced obese (DIO) JAX mice). The mice were ear notched for identification and housed in individually and positively ventilated polycarbonate cages with HEPA filtered air at a density of up to 4 mice per cage. […] The animal rooms were set to have a minimum of 15 air exchanges per hour.
Three mice in unclosed Group 1 were bled at time zero only.
For Groups 2 to 5, four mice were bled at 2 time points with the second time point being terminal. At each time point, a minimum of −200 whole blood was collected via retro-orbital bleed or cardiocentesis. The blood samples were collected in K2EDTA anticoagulant and centrifuged. The plasma (a minimum of 100 μL) was transferred to a tube and stored frozen until shipment to the bioanalytical lab for analysis by LC-MS/MS.
A 100 μL aliquot of the plasma was mixed with 10 μL of internal standard (20 μg/mL standard in phosphate buffered saline) and then 300 μL of acetonitrile. The samples were vortexed and centrifuged. The supernatant was transferred to a clean 96-well plate for LC-MS/MS analysis.

[5] = test system: DIO rats; experiment: 28-day body weight study in DIO CRL:CD(SD) rats; assay type: in vivo, rat; conditions: for body weight loss: 28 days
Text: Fifty-four male DIO CRL:CD rats, approximately 14-15 weeks of age upon study initiation, were enrolled in the study at Charles River Laboratories (Shrewsbury, Mass.). […] Food consumption was monitored on Study Days −1 through Study Days 27 (Main Study) or Day 41 (Recovery) by weighing the food and hopper together. The mean value of food consumption for Group 2 determined the amount of food made available to Group 3 in the subsequent feeding session. Similarly, the mean value of food consumed for Group 5 determined the quantity of food available for Group 6 in the subsequent feeding session. Food and drinking water were provided ad libitum throughout the study with the exception of the 5-h fasting periods occurring on Study Days 1, 28, and 42. Animals were randomized into groups based on body weight and non-fasted blood glucose (BG) data collected on Study Day −1. […] The total group dependent dose volume (mL/kg) was based on the most recently recorded body wt. Individual animal body weights were recorded beginning on Day −1. […] On Study Days −1, 1, 3-27, 29, and 36 a 3 μL drop of whole blood was collected via tail snip for assessment of blood glucose using a handheld glucometer (Alpha Trak 2, Abbot). […] Additionally, on Study Day 28 following a 5-hour fast, animals were administered a 10 mL/kg dose of glucose (2 g/kg) via intraperitoneal injection. […] Samples for glucose were read using a handheld glucometer.

[6] = 15000 ng/mL, 37° C., 6 hours, replicate, listed as ALT-801

CC[C@H](C)[C@H](NC(=O)[C@H](Cc1ccccc1)NC(=O)[C@H](CCC(=O)O)NC(=O)[C@@H]1CCCCNC(=O)CC[C@H](NC(=O)[C@H](CC(=O)O)NC(=O)[C@H](CC(C)C)NC(=O)[C@H](Cc2ccc(O)cc2)NC(=O)[C@H](CCCCN)NC(=O)[C@H](CO)NC(=O)[C@H](Cc2ccc(O)cc2)NC(=O)[C@H](CC(=O)O)NC(=O)[C@H](CO)NC(=O)[C@@H](NC(=O)[C@H](Cc2ccccc2)NC(=O)[C@@H](NC(=O)CNC(=O)[C@H](CCC(N)=O)NC(=O)C(C)(C)NC(=O)[C@@H](N)Cc2c[nH]cn2)[C@@H](C)O)[C@@H](C)O)C(=O)N[C@@H](CCCCNC(=O)[C@H]2O[C@@H](OCCCCCCCCCCCCCCCCCC(=O)O)[C@H](O)[C@@H](O)[C@@H]2O)C(=O)N[C@@H](C)C(=O)N[C@@H](C)C(=O)N1)C(=O)N[C@@H](CCC(N)=O)C(=O)N[C@@H](Cc1c[nH]c2ccccc12)C(=O)N[C@@H](CC(C)C)C(=O)N[C@@H](CC(C)C)C(=O)N[C@@H](CCC(N)=O)C(=O)N[C@H](C(N)=O)[C@@H](C)O [SEQ ID NO: 1]
fraction unbound at 6 h, 15000 ng/mL [1]: 0.002 | fraction unbound [2]: 0.00241 | Initial Conc, Mean ([3]; 15000 ng/mL nominal): 5980 ng/mL | Percentage of ALT-801 Bound, Mean ([3]; 15000 ng/mL, 37° C., 6 hours): 99.8% | Percentage of ALT-801 Bound [3, 6]: 99.8% (2×) and 99.7% | Percentage of ALT-801 Unbound [3, 6]: 0.204% and 0.184% and 0.334% | Ultracentrifugate, Mean ([3]; 37° C., 6 hours): 14.4 ng/mL | Ultracentrifugate, Rep ([3]; 37° C., 6 hours, replicate, listed as ALT-801): 12.2 ng/mL and 11.0 ng/mL and 20.0 ng/mL | Percent of Theoretical ([3]; initial conc vs 15000 ng/mL): 39.9% | Cmax as % of that of semaglutide ([4]; male mice, 10 nmol/kg SC): 54% | AUC(0-inf) ([4]; iv, 10 nmol/kg): 1.53 µM·h | AUC(0-t) ([4]; iv, 10 nmol/kg): 1.5 µM·h | Cmax ([4]; iv, 10 nmol/kg): 79.5 nM | Tmax ([4]; iv, 10 nmol/kg): 8 h | half-life ([4]; iv, 10 nmol/kg): 14.7 h | MRT ([4]; iv, 10 nmol/kg, male mice, 10 nmol/kg IV): 14.8 h | AUC(0-inf) ([4]; sc, 10 nmol/kg): 0.695 µM·h | AUC(0-t) ([4]; sc, 10 nmol/kg): 0.687 µM·h | Cmax ([4]; sc, 10 nmol/kg): 23.7 nM | Tmax ([4]; sc, 10 nmol/kg): 8 h | half-life ([4]; sc, 10 nmol/kg): 15.4 h | MRT ([4]; sc, 10 nmol/kg, male mice, 10 nmol/kg SC): 22.2 h | AUC(0-inf) ([4]; sc, 30 nmol/kg): 1.95 µM·h | AUC(0-t) ([4]; sc, 30 nmol/kg): 1.93 µM·h | Cmax ([4]; sc, 30 nmol/kg): 76.9 nM | Tmax ([4]; sc, 30 nmol/kg): 8 h | half-life ([4]; sc, 30 nmol/kg): 10 h | MRT ([4]; sc, 30 nmol/kg, male mice, 30 nmol/kg SC): 18.3 h | MRT ([4]; sc, 30 nmol/kg, male mice, 10 and 30 nmol/kg): 18.3 to 22.2 h | body weight loss ([5]; 6 nmol/kg QD sc): −24% | feeding suppression ([5]; 12 nmol/kg QD sc): more sustained feeding suppression | liver weight as % of body weight at 28 days ([5]; 12 nmol/kg QD sc): 2.4% | liver weight at 28 days ([5]; 12 nmol/kg QD sc): 8.9 g | body weight loss ([5]; 12 nmol/kg QD sc): −40% | liver weight as % of body weight at 28 days ([5]; low dose 6 nmol/kg QD sc): 2.5% | liver weight at 28 days ([5]; low dose 6 nmol/kg QD sc): 11.5 g

From patent US20210290732A1, “GLP-1R and GCGR Agonists, Formulations, and Methods of Use” (Spitfire Pharma LLC, priority 2020, published 2021)
